Measurements as given in ChEMBL document CHEMBL3351332, “Diarylureas as allosteric modulators of the cannabinoid CB1 receptor: structure-activity relationship studies on 1-(4-chlorophenyl)-3-{3-[6-(pyrrolidin-1-yl)pyridin-2-yl]phenyl}urea (PSNCBAM-1)” (J Med Chem, 2014).

The chains behind the UniProt entries cited, without tags or fusion partners.
UniProt P21554, whole entry: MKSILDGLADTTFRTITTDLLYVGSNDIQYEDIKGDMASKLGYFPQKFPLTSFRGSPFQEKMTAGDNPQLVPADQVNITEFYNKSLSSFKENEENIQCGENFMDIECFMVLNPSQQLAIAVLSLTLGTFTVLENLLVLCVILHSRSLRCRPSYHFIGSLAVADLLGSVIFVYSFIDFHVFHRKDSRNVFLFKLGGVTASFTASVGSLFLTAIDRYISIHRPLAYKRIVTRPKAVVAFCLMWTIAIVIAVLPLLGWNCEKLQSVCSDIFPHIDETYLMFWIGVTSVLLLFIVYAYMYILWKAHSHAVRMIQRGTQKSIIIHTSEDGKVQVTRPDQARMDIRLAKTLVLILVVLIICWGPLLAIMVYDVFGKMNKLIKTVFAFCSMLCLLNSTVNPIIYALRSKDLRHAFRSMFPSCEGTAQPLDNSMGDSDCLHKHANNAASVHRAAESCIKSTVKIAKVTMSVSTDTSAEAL

Biological target: Cannabinoid receptor 1 (Homo sapiens, UniProt P21554)
Assay: Antagonist activity at human CB1 receptor stably expressed in RD-HGA16 cells assessed as inhibition of CP55,940-induced calcium mobilization after 15 mins by FLIPR assay
Format: functional, cell-based

O=C(Nc1ccc(Cl)cc1)Nc1cccc(-c2cccc(N3CCCC3)n2)c1
IC50: 32.5 nM
